Literature values as cited in PMC3586205 (2012).

System: ring immobility in mice
Settings: 10 mg/kg i.v.; ref Wiley et al. (2012); cited from earlier work

## Cc1c(C(=O)NN2CCCCC2)nn(-c2ccc(Cl)cc2Cl)c1-c1ccc(Cl)cc1 [Rimonabant, reference compound]
  RI, % time immobile on elevated ring (maximum effect): inactive (10)
